Usually IC50 stands for the point on the concentration scale where inhibition reaches its midpoint. A low value points to inhibition by little substance.

Sequences of proteins named here, by UniProt entry; tags and fusion partners are left off.
UniProt P27487, whole entry: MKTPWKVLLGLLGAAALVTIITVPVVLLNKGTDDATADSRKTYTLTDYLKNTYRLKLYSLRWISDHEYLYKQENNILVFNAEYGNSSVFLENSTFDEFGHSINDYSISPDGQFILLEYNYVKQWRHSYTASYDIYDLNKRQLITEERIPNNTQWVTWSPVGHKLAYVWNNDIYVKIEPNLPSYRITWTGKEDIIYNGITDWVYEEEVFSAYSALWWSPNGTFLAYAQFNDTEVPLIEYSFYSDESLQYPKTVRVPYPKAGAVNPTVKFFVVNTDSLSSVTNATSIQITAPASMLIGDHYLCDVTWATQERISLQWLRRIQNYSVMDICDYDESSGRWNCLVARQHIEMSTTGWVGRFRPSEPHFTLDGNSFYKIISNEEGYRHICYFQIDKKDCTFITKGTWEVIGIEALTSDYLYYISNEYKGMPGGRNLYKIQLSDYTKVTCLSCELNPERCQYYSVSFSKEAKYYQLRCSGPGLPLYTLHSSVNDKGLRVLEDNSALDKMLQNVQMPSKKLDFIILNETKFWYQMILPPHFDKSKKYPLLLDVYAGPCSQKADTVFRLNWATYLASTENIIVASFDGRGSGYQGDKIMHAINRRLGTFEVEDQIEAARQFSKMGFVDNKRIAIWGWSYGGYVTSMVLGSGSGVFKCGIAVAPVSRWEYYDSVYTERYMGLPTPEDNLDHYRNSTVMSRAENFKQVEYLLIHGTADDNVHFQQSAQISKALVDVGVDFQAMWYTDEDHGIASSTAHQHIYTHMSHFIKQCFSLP

Results on one compound are retold here after ChEMBL document CHEMBL4229387, “Recent progress of the development of dipeptidyl peptidase-4 inhibitors for the treatment of type 2 diabetes mellitus” (Eur J Med Chem, 2018).

The target in this assay is Dipeptidyl peptidase 4 (Homo sapiens, UniProt P27487). As to the kind of experiment: Inhibition of DPP4 (unknown origin) using Gly-Pro-AMC as substrate preincubated for 4 secs followed by substrate addition and measured after 30 mins by […] assay.

For the compound `CC[C@H](C)[C@H](N)C(=O)N1CCC[C@H]1C(=O)N[C@H](C(=O)O)[C@@H](C)CC` [DIPROTIN A], the IC50 is 4.21 µM.
